Experimental data from patent publication US20250179057A1, “MEK IMMUNE ONCOLOGY INHIBITORS AND THERAPEUTIC USES THEREOF” (Immuneering Corporation, priority 2022, published 2025).

Protein sequences, listed by entry. Tags and fused reporters are not part of them.
UniProt P05177, whole entry: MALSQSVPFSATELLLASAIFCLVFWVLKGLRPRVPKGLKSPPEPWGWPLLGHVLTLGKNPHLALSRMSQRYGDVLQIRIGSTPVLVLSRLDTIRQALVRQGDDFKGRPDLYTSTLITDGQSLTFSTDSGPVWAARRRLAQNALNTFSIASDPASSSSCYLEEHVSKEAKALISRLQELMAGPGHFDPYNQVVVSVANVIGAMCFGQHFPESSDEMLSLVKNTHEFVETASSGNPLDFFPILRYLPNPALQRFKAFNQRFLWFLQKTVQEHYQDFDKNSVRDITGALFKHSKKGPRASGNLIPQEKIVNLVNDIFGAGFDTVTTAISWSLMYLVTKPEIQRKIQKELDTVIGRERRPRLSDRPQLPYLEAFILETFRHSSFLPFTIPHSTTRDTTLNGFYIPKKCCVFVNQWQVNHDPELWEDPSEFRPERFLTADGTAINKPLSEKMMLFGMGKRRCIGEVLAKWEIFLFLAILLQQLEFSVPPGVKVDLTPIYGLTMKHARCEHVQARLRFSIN
UniProt P33261, whole entry: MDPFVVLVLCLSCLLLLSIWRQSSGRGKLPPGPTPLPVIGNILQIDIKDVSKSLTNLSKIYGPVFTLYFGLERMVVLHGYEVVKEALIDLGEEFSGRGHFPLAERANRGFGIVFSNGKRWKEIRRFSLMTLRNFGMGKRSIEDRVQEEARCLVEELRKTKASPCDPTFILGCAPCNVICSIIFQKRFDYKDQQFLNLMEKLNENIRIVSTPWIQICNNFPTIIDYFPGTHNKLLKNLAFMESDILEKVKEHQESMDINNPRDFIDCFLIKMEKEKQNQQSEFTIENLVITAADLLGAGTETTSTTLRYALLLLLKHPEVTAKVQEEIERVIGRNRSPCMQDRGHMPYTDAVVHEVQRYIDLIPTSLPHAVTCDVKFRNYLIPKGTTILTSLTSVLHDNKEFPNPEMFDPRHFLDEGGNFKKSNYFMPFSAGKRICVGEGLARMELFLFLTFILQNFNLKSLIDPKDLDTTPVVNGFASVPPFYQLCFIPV
UniProt P20813, whole entry: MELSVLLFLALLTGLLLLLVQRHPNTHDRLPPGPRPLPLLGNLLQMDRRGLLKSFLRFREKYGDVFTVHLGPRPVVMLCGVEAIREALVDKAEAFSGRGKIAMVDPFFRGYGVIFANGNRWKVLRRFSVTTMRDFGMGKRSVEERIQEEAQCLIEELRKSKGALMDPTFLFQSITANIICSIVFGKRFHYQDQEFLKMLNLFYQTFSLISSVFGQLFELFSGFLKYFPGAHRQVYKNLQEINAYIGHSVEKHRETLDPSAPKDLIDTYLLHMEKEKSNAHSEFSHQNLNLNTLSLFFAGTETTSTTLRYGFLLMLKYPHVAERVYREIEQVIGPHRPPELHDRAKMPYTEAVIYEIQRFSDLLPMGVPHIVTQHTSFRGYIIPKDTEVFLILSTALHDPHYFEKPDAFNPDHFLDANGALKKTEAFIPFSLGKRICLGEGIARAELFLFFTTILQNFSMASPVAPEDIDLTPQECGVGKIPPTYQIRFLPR
UniProt P08684, whole entry: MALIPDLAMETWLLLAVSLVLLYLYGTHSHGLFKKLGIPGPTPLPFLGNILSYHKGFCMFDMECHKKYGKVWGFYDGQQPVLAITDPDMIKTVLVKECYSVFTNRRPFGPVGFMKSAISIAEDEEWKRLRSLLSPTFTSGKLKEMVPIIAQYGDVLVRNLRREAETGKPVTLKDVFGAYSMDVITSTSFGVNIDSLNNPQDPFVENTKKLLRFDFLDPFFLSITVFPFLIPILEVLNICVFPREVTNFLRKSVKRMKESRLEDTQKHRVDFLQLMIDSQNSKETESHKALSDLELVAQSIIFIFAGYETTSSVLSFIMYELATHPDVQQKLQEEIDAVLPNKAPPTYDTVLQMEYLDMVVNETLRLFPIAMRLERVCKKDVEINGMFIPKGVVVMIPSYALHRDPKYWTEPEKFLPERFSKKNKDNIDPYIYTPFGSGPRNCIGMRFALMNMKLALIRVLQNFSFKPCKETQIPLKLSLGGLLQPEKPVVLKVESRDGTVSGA
UniProt Q12809, whole entry: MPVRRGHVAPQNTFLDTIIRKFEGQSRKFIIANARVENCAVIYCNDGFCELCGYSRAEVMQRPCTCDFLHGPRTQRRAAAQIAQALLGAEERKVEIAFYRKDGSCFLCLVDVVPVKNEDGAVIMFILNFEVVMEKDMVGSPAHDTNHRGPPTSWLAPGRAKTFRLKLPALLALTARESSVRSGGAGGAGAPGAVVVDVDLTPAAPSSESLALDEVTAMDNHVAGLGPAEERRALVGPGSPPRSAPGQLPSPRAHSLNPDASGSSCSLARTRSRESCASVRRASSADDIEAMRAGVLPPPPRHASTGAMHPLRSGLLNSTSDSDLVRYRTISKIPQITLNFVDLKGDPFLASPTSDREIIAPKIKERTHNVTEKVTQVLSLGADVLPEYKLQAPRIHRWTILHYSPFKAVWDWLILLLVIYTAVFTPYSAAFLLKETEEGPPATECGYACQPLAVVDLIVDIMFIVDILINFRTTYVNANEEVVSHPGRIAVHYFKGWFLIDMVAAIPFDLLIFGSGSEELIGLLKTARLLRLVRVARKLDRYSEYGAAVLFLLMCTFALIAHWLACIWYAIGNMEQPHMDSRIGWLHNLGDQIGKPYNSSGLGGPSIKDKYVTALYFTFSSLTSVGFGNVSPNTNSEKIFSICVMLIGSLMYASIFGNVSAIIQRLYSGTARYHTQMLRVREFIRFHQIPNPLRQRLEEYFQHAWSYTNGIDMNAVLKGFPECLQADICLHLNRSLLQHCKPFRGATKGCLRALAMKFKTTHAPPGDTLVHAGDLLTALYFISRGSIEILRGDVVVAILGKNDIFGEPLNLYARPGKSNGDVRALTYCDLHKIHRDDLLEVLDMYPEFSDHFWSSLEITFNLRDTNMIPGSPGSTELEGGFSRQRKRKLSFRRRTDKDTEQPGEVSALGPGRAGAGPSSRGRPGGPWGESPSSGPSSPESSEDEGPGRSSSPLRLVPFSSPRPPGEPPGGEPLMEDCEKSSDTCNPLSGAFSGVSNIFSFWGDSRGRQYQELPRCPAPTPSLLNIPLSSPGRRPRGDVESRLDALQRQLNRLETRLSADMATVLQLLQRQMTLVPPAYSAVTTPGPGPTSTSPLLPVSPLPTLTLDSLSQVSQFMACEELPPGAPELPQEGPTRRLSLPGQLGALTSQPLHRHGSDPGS
UniProt P10635, whole entry: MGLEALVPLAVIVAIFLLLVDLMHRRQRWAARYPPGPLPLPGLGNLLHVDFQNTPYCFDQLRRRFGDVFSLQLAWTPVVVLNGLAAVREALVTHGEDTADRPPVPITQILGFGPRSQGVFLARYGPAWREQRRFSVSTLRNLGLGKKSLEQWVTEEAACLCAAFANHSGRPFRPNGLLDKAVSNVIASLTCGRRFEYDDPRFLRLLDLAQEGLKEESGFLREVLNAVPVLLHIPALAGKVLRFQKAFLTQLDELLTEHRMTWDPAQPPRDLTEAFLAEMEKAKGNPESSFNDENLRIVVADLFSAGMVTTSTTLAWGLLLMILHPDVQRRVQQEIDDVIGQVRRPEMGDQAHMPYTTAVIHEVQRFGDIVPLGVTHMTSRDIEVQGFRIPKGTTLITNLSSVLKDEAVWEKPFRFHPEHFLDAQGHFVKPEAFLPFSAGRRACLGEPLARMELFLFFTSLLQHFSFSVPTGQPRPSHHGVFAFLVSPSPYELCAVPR
UniProt P10632, whole entry: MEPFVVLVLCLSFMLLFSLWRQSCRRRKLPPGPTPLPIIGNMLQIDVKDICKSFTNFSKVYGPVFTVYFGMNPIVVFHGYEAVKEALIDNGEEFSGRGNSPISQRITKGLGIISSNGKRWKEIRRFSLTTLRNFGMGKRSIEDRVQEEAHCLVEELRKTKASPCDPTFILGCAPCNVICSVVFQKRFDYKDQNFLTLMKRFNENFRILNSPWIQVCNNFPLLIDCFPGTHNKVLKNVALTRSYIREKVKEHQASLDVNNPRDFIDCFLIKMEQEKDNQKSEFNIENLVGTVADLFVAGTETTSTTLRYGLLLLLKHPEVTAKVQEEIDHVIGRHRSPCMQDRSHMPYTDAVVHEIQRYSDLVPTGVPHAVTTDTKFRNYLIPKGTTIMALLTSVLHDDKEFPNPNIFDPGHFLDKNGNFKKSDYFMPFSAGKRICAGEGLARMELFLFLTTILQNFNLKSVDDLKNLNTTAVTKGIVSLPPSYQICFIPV
UniProt P11712, whole entry: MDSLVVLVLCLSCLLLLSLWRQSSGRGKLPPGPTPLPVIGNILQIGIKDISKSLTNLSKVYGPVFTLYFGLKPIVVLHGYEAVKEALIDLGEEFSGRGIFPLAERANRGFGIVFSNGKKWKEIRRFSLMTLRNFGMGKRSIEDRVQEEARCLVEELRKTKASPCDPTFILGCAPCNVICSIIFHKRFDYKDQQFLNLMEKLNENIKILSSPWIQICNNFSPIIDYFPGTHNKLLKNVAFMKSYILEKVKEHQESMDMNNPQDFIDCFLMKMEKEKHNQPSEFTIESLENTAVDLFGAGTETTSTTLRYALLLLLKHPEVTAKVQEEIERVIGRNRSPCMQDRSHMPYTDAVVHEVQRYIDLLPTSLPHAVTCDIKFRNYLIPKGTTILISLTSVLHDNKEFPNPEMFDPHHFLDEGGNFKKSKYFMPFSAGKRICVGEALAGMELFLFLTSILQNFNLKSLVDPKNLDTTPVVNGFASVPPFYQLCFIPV

Experiments:
[1] = test system: cynomolgus monkey hepatocytes; test: Hepatocyte stability, cynomolgus monkey; format: in vitro ADME; settings: 2 μM, 0.5 million cells/ml
[2] = Plasma stability, human plasma (K2EDTA); format: in vitro ADME; settings: 2 μM, anti-coagulant K2-EDTA; for T1/2: 10 to 120 min; for % Remaining at T120: 120 min
CYP1A2 = CYP1A2 (Homo sapiens, UniProt P05177); test: CYP450 panel inhibition in human liver microsomes, 1A2 (phenacetin); settings: 10 μM, substrate phenacetin
[3] = Mouse pharmacokinetics (oral cassette dosing), plasma; settings: BALB/c immunocompetent mice, 5 mg/kg p.o.
CYP2C19 = CYP2C19 (Homo sapiens, UniProt P33261); test: CYP450 panel inhibition in human liver microsomes, 2C19 (mephenytoin); settings: 10 μM, substrate mephenytoin
CYP2B6 = CYP2B6 (Homo sapiens, UniProt P20813); test: CYP450 panel inhibition in human liver microsomes, 2B6 (bupropion); settings: 10 μM, substrate bupropion
CYP3A4 = CYP3A4 (Homo sapiens, UniProt P08684); test: CYP450 panel inhibition in human liver microsomes, 3A4 (midazolam / testosterone); settings: 10 μM; for CYP-3A4 (Midazolam) mean percentage CYP inhibition: substrate midazolam; for CYP-3A4 (Testosterone) mean percentage CYP inhibition: substrate testosterone
[4] = Plasma stability, rat plasma (Wistar Han / wistar hannover; Table 5 head SD Rat); format: in vitro ADME; settings: 2 μM, anti-coagulant K2-EDTA; for % Remaining at T120: 120 min
balb/c mouse hepatocytes = test: Hepatocyte stability, balb/c mouse; format: in vitro ADME; settings: 2 μM, 0.5 million cells/ml
[5] = Plasma stability, beagle dog plasma (K2EDTA); format: in vitro ADME; settings: 2 μM, anti-coagulant K2-EDTA; for % Remaining at T120: 120 min
[6] = test system: wistar hannover rat hepatocytes; test: Hepatocyte stability, wistar hannover rat; format: in vitro ADME; settings: 2 μM, 0.5 million cells/ml
hERG channel = hERG channel (Homo sapiens, UniProt Q12809); settings: read-out: IC50 (μM), hERG ion channel block; Example 46; 5 min exposure per concentration
CYP2D6 = CYP2D6 (Homo sapiens, UniProt P10635); test: CYP450 panel inhibition in human liver microsomes, 2D6 (dextromethorphan); settings: 10 μM, substrate dextromethorphan
beagle dog hepatocytes = test: Hepatocyte stability, beagle dog; format: in vitro ADME; settings: 2 μM, 0.5 million cells/ml
[7] = Plasma stability, mouse plasma (Balb/c; Table 5 head CD-1 Mouse); format: in vitro ADME; settings: 2 μM, anti-coagulant K2-EDTA; for % Remaining at T120: 120 min
CYP2C8 = CYP2C8 (Homo sapiens, UniProt P10632); test: CYP450 panel inhibition in human liver microsomes, 2C8 (amodiaquine); settings: 10 μM, substrate amodiaquine
[8] = Plasma stability, cynomolgus monkey plasma (K2-EDTA); settings: 2 μM, anti-coagulant K2-EDTA; for % Remaining at T120: 120 min
[9] = Kinetic solubility (PBS pH 7.4; 4 hr); settings: free base (Table 19)
Caco-2 cells = test: Caco-2 bidirectional permeability (absorption & efflux); settings: Example 47
human hepatocytes = test: Hepatocyte stability, human; format: in vitro ADME; settings: 2 μM, 0.5 million cells/ml; for % Remaining At T120 / T1/2: 120 min
CYP2C9 = CYP2C9 (Homo sapiens, UniProt P11712); test: CYP450 panel inhibition in human liver microsomes, 2C9 (diclofenac); settings: 10 μM, substrate diclofenac

CCCS(=O)(=O)Nc1cccc(Cc2c(CN(C)CC)c3cc(Cl)c(OC(=O)N(C)C)cc3oc2=O)c1F
% Remaining At T120 [1]: 13.7%
CLint (L/hr/kg) [1]: 8.05 L/h/kg
CLint (mL/min/kg) [1]: 134 mL/min/kg
T1/2 [1]: 0.697 h
T1/2 [2]: 59.02 h
% Remaining at T120 [2]: 97.0%
CYP-1A2 (Phenacetin) mean percentage CYP inhibition (CYP1A2): −3.1%
AUC0-t [3]: 416 ng·h/mL
AUC0-∞ [3]: 434 ng·h/mL
Cmax [3]: 857 ng/mL
T1/2 [3]: 0.9 h
Tmax [3]: 0.083 h
CYP-2C19 (Mephenytoin) mean percentage CYP inhibition (CYP2C19): 19.1%
CYP-2B6 (Bupropion) mean percentage CYP inhibition (CYP2B6): −2.3%
CYP-3A4 (Midazolam) mean percentage CYP inhibition (CYP3A4): 13.5%
CYP-3A4 (Testosterone) mean percentage CYP inhibition (CYP3A4): 38.8%
T1/2 [4]: 142 h
% Remaining at T120 [4]: 98.1%
% Remaining At T120 (balb/c mouse hepatocytes): 56.0%
CLint (L/hr/kg) (balb/c mouse hepatocytes): 6.86 L/h/kg
CLint (mL/min/kg) (balb/c mouse hepatocytes): 114 mL/min/kg
T1/2 (balb/c mouse hepatocytes): 2.38 h
T1/2 [5]: >2 h
% Remaining at T120 [5]: 102.6%
% Remaining At T120 [6]: 27.9%
CLint (L/hr/kg) [6]: 3.44 L/h/kg
CLint (mL/min/kg) [6]: 57.4 mL/min/kg
T1/2 [6]: 1.09 h
IC50 (hERG channel): 5.6 µM
CYP-2D6 (Dextromethorphan) mean percentage CYP inhibition (CYP2D6): 8.3%
% Remaining At T120 (beagle dog hepatocytes): 41.9%
CLint (L/hr/kg) (beagle dog hepatocytes): 4.68 L/h/kg
CLint (mL/min/kg) (beagle dog hepatocytes): 78.0 mL/min/kg
T1/2 (beagle dog hepatocytes): 1.59 h
T1/2 [7]: 5.28 h
% Remaining at T120 [7]: 74.9%
CYP-2C8 (Amodiaquine) mean percentage CYP inhibition (CYP2C8): 7.1%
T1/2 [8]: >2 h
% Remaining at T120 [8]: 98.4%
Kinetic Solubility [9]: >80 µM
A − B Permeability Ranking (Caco-2 cells): Higher
Mean Papp A − B (10^−6 cm/s) (Caco-2 cells): 20.5 10^−6 cm/s
Mean Papp B − A (10^−6 cm/s) (Caco-2 cells): 16.7 10^−6 cm/s
CLint (L/hr/kg) (human hepatocytes): 3.06 L/h/kg
CLint (mL/min/kg) (human hepatocytes): 51.0 mL/min/kg
% Remaining At T120 (human hepatocytes): 32.2%
T1/2 (human hepatocytes): 1.22 h
CYP-2C9 (Diclofenac) mean percentage CYP inhibition (CYP2C9): 17.1%

CNS(=O)(=O)Nc1cccc(Cc2c(CN3CC(F)(F)C3)c3ccc(OC(=O)N(C)C)cc3oc2=O)c1F
% Remaining At T120 [1]: 74.0%
CLint (L/hr/kg) [1]: 1.22 L/h/kg
CLint (mL/min/kg) [1]: 20.3 mL/min/kg
T1/2 [1]: 4.6 h
T1/2 [2]: >2 h
% Remaining at T120 [2]: 95.4%
CYP-1A2 (Phenacetin) mean percentage CYP inhibition (CYP1A2): 8.2%
AUC0-t [3]: 23.2 ng·h/mL
Cmax [3]: 4.9 ng/mL
Tmax [3]: 0.5 h
CYP-2C19 (Mephenytoin) mean percentage CYP inhibition (CYP2C19): 36.9%
CYP-2B6 (Bupropion) mean percentage CYP inhibition (CYP2B6): 2.0%
CYP-3A4 (Midazolam) mean percentage CYP inhibition (CYP3A4): 28.4%
CYP-3A4 (Testosterone) mean percentage CYP inhibition (CYP3A4): 32.0%
T1/2 [4]: 65.68 h
% Remaining at T120 [4]: 97.9%
% Remaining At T120 (balb/c mouse hepatocytes): 74.4%
CLint (L/hr/kg) (balb/c mouse hepatocytes): 3.50 L/h/kg
CLint (mL/min/kg) (balb/c mouse hepatocytes): 58.3 mL/min/kg
T1/2 (balb/c mouse hepatocytes): 4.68 h
T1/2 [5]: 59 h
% Remaining at T120 [5]: 95.0%
% Remaining At T120 [6]: 48.6%
CLint (L/hr/kg) [6]: 1.95 L/h/kg
CLint (mL/min/kg) [6]: 32.5 mL/min/kg
T1/2 [6]: 1.92 h
IC50 (hERG channel): 13.1 µM
CYP-2D6 (Dextromethorphan) mean percentage CYP inhibition (CYP2D6): 11.1%
% Remaining At T120 (beagle dog hepatocytes): 52.1%
CLint (L/hr/kg) (beagle dog hepatocytes): 3.50 L/h/kg
CLint (mL/min/kg) (beagle dog hepatocytes): 58.4 mL/min/kg
T1/2 (beagle dog hepatocytes): 2.13 h
T1/2 [7]: 12.4 h
% Remaining at T120 [7]: 89.8%
CYP-2C8 (Amodiaquine) mean percentage CYP inhibition (CYP2C8): 59.6%
T1/2 [8]: 10 h
% Remaining at T120 [8]: 89.2%
Kinetic Solubility [9]: >80 µM
A − B Permeability Ranking (Caco-2 cells): Lower
Mean Papp A − B (10^−6 cm/s) (Caco-2 cells): 0.240 10^−6 cm/s
Mean Papp B − A (10^−6 cm/s) (Caco-2 cells): 8.54 10^−6 cm/s
CLint (L/hr/kg) (human hepatocytes): 0.106 L/h/kg
CLint (mL/min/kg) (human hepatocytes): 1.77 mL/min/kg
% Remaining At T120 (human hepatocytes): 96.2%
T1/2 (human hepatocytes): 35.33 h
CYP-2C9 (Diclofenac) mean percentage CYP inhibition (CYP2C9): 32.0%
